From patent US20100076003A1, “5-OXAZOLIDIN-2-ONE SUBSTITUTED 1,3,8-TRIAZASPIRO[4.5]DECAN-4-ONE DERIVATIVES USEFUL AS ORL-1 RECEPTOR MODULATORS” (published 2010)

What was measured:
[1] = biological target: Kappa (κ) opioid receptor (Homo sapiens, UniProt P41145); assay: Filtration binding assay, kappa opioid receptor, U-69,593-3H ligand; details: 2C2 cell line membrane, 2.76 nM U-69,593-3H
[2] = biological target: Mu (μ) opioid receptor (Homo sapiens, UniProt P35372); assay: Filtration binding assay, mu opioid receptor, DAMGO-3H ligand; details: 1D4 cell line membrane, 0.8993 nM DAMGO-3H
[3] = biological target: Delta (δ) opioid receptor (Homo sapiens, UniProt P41143); assay: Filtration binding assay, delta opioid receptor, DPDPE-3H ligand; details: read-out: Delta Ki; 2D4 cell line membrane, 2.44 nM DPDPE-3H; mean if tested more than once

Question: Which results are given for `O=C1NC[C@@H](CN2CN(c3ccc(F)cc3)C3(CCN([C@@H]4Cc5cccc6cccc4c56)CC3)C2=O)O1`?
Answer: IC50 ([1]; read-out: Kappa IC50 (cell in Ki column marked IC50), value noted as IC50 in the cell): 510 nM; IC50 ([2]; read-out: Mu IC50 (cell in Ki column marked IC50), value noted as IC50 in the cell): 160 nM

Question: Which Ki ([1]; read-out: Kappa Ki, mean if tested more than once) does the source give for `O=C1NC[C@H](CN2CN(c3ccc(F)cc3)C3(CCN(CC4CCCCCCC4)CC3)C2=O)O1` here?
Answer: The Ki was 130 nM.

Question: And the Ki [3]?
Answer: Its Ki is greater than 5000 nM.

Question: What about the Ki ([2]; read-out: Mu Ki, mean if tested more than once) of the same molecule?
Answer: Its Ki is 60 nM.
